According to patent publication US20240217961A1 (MONOPTEROS THERAPEUTICS, INC., priority 2021, published 2024):

Assay: Dynamic Vapor Sorption (DVS) at 25° C.
Details: 70% RH, method 50-90-0-50% RH, dm/dt = 0.01%

(S)-mepazine succinate salt
DVS Desorp (%): 0.16% | DVS Sorption (%): 0.14%
